Experimental findings from patent US8101180B2, “Anti-IGF-IR and/or anti-insulin/IGF-I hybrid receptors antibodies and uses thereof” (Pierre Fabre Medicament, priority 2002, dated 2012) are described below.

One assay deals with A549 cells. Kind of assay: ADCC with human NK cells on A549 cells (51Cr). The settings on record: 4 hours, 10 μg antibody per 5·10^5 cells. Format: cell-based. The protocol:
(§1) It is, however, probable that during its administration in man, the antibody 7H2HM, of isotype IgG1, is capable of inducing cell lysis by a mechanism of ADCC type (Antibody Dependent Cellular Cytotoxicity). In order to verify this point, NK (Natural Killer) cells coming from the peripheral blood of human donors are placed in the presence of A549 or MCF-7 cells previously incubated for 4 hours with 10 μg of 7H2HM antibody per 5·10^5 cells and labeled with ^51Cr ([…]). In this experiment, herceptin (written h4D5 on FIGS. 32A and 32B) is used as an experiment positive control.

The subject of another assay is MCF-7 cells. Kind of assay: ADCC with human NK cells on MCF-7 cells (51Cr). The class given is cell-based. The settings on record: 4 hours, 10 μg antibody per 5·10^5 cells. The protocol:
as §1

As to “herceptin: anti-HER2/neu antibody used as positive control for ADCC [reference compound]”, the “ADCC on A549 cells” value with A549 cells is given as “significant ADCC”. In addition, the “ADCC on MCF-7 cells” value with MCF-7 cells is given as “significant ADCC”.
